Assay results reported in US8318635B2, “Phytotoxicity controlling agent for upland farming and phytotoxicity controlling method using the same” (priority 2006, dated 2012).
Where a name gives a salt, the structure may show the parent alone.

How the values were obtained:
Assay in all cases: Visual growth study, phytotoxicity index, chemicals scattered on the next day after sowing
Conditions in all cases: treated next day after sowing, 26 days after treatment, 0 = no growth inhibition, 100 = full dying, 4-(tert-butyl)benzoic acid 1000 g ai/ha in Examples, 0 in Comparative Examples, herbicide dose per label
[1] = tested on: sweet corn (Delicious 100)
Experimental: (§1) A wettable powder containing 10% of 4-(tert-butyl)benzoic acid was prepared by blending pulverization of 10 parts of 4-(tert-butyl)benzoic acid, 2 parts of a sodium salt of naphthalenesulfonic acid-formalin condensation product, 2 parts of a polyoxyethylene alkyl ether, 30 parts of diatomaceous earth and 56 parts of clay by using a high-speed air-jet pulverizer.
(§2) These containers were each kept standing in a water vat and water supply for pooling was introduced through the hole opening at the bottom of the water vat.
(§3) For comparison, on the other hand, evaluation was made by conducting growth studies by growing sweet corn, wheat, dry-paddy rice, sorghum, soybean, adzuki bean and rapeseed under the same conditions as in the Examples excepting for the omission of scattering of 4-(tert-butyl)benzoic acid.

wheat (Brigadier) = tested on: wheat (Brigadier)
Experimental: as §1, §2, §3

dry-paddy rice (Labell) = tested on: dry-paddy rice (Labell)
Experimental: as §1, §2, §3

soybean (Fukuyutaka) = tested on: soybean (Fukuyutaka)
Experimental: as §1, §2, §3

adzuki bean (Dainagon) = tested on: adzuki bean (Dainagon)
Experimental: as §1, §2, §3

rapeseed = tested on: rapeseed
Experimental: as §1, §2, §3

`CC(C)C1(C)N=C(c2nc3ccccc3cc2C(=O)O)NC1=O` (stereo not drawn) [compound 1, Imazaquin ammonium salt] gave a Phytotoxicity index [1] of 23.
Molecule `CC(C)C1(C)N=C(c2nc3ccccc3cc2C(=O)O)NC1=O` (stereo not drawn) [compound 5, Imazaquin ammonium salt] has a Phytotoxicity index (wheat (Brigadier)) of 30.
`CC(C)C1(C)N=C(c2nc3ccccc3cc2C(=O)O)NC1=O` (stereo not drawn) [compound 6, Imazaquin ammonium salt] was tested, and the Phytotoxicity index (dry-paddy rice (Labell)) was 50.
Work on `CC(C)C1(C)N=C(c2nc3ccccc3cc2C(=O)O)NC1=O` (stereo not drawn) [compound 9, Imazaquin ammonium salt] yielded a Phytotoxicity index (soybean (Fukuyutaka)) of 15.
For `CC(C)C1(C)N=C(c2nc3ccccc3cc2C(=O)O)NC1=O` (stereo not drawn) [compound 12, Imazaquin ammonium salt], the Phytotoxicity index (adzuki bean (Dainagon)) was 38.
Work on `CC(C)C1(C)N=C(c2nc3ccccc3cc2C(=O)O)NC1=O` (stereo not drawn) [compound 13, Imazaquin ammonium salt] yielded a Phytotoxicity index (rapeseed) of 50.
